Here are results for 13 compounds from patent US20240360179A1, “STAPLED PEPTIDES AND METHODS THEREOF” (FOG PHARMACEUTICALS, INC., priority 2021, published 2024).

Chains of the proteins cited; added tags and fusions are not shown.
UniProt P35222, whole entry: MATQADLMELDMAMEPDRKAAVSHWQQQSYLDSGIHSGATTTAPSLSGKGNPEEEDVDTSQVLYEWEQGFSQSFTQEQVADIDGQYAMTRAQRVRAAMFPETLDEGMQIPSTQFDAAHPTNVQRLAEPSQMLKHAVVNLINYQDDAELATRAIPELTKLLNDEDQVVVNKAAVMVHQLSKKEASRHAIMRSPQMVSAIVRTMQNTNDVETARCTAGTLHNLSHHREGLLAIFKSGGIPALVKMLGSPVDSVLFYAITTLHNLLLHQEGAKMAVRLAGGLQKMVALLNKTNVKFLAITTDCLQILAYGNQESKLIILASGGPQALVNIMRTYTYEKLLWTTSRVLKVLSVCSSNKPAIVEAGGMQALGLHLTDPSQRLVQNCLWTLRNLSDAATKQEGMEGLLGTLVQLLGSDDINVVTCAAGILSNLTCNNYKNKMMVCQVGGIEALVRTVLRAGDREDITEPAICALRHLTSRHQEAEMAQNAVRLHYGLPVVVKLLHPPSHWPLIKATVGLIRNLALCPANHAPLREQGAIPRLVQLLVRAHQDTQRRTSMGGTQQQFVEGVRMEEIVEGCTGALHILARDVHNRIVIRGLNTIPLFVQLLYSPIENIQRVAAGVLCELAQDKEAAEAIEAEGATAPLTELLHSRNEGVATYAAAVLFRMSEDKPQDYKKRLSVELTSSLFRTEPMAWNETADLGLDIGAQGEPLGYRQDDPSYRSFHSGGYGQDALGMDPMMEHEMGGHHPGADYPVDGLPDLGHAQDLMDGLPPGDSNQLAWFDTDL

Assay [1] concerns the target beta-catenin/TCF4 interaction (Homo sapiens, UniProt P35222). Kind of assay: cell-based. Also on record: host or cells: HEK293. The note with it: NanoBRET Abs IC50 (uM).
In assay [2] the target is T1, full-length B-Catenin (Uniprot ID P35222) (Homo sapiens, UniProt P35222).
T1 construct: 10 nM full-length B-Catenin (Uniprot ID P35222)
Put plainly: biochemical. The format is binding. The note with it: beta-Catenin FP IC50 (nM), competition fluorescence polarization. (Fluorescence polarisation rises when a labelled molecule tumbles more slowly, as on binding a larger partner.)

Molecules are shown by their SMILES. Where only a bound is given, the exact number is not on record here.

Take `CC(=O)N1CCC[C@]12CC=CCCCC1(CCCC=CCCCOC(=O)N3CC[C@@]4(C3)NC(=O)[C@H](CCCCNC(=O)CC[C@@H](C(=O)N[C@@H](CCCN3CCOCC3)C(=O)N[C@@H](CO)C(N)=O)NC(=O)[C@H](Cc3csc5ccccc35)NC(=O)[C@H](Cc3ccccc3C(F)(F)F)NC4=O)NC(=O)[C@H](Cc3ccccc3)NC(=O)[C@H](C)NC(=O)C(C)(C)NC(=O)[C@H](Cc3cccc(C(=O)O)c3)NC(=O)[C@H](CC(=O)O)NC1=O)NC(=O)[C@H](CC(C)(C)C)NC(=O)[C@H](CC(=O)O)NC2=O` (relative stereo) [I-232, Ac-PL3-Asp-Npg-B5-Asp-3COOHF-Aib-Ala-Phe-Lys*3-PyrS2-2F3MeF-BztA-GlnR*3-MorphNva-Ser-NH2]: the IC50 in assay [1] is more than 10 µM; in assay [2], less than 50 nM.
The matching figures for `CCCC[C@@H]1NC(=O)[C@H](CC(=O)O)NC(=O)[C@]2(CC=CCCCC3(CCCC=CCCCOC(=O)N4CC[C@@]5(C4)NC(=O)[C@H](CCCCNC(=O)CC[C@@H](C(=O)N[C@@H](C)C(N)=O)NC(=O)[C@H](Cc4csc6ccccc46)NC(=O)[C@H](Cc4ccsc4)NC5=O)NC(=O)[C@H](Cc4ccccc4)NC(=O)[C@H](C)NC(=O)C(C)(C)NC(=O)[C@H](Cc4cccc(C(=O)O)c4)NC(=O)[C@H](CC(=O)O)NC3=O)NC1=O)CCCN2C(C)=O` (relative stereo) [I-245, Ac-PL3-Asp-nLeu-B5-Asp-3COOHF-Aib-Ala-Phe-Lys*3-PyrS2-3Thi-BztA-GlnR*3-Ala-NH2]: 1.5 to 3 µM and less than 50 nM.
Take `CC(=O)N1CCC[C@]12CC=CCCCC1(CCCC=CCCCOC(=O)N3CC[C@@]4(C3)NC(=O)[C@H](CCCCNC(=O)CC[C@@H](C(=O)N[C@@H](C)C(N)=O)NC(=O)[C@H](Cc3csc5ccccc35)NC(=O)[C@H](Cc3ccsc3)NC4=O)NC(=O)[C@H](Cc3ccccc3)NC(=O)[C@H](C)NC(=O)C(C)(C)NC(=O)[C@H](Cc3cccc(C(=O)O)c3)NC(=O)[C@H](CC(=O)O)NC1=O)NC(=O)[C@H](CC(C)C)NC(=O)[C@H](CC(=O)O)NC2=O` (relative stereo) [I-246, Ac-PL3-Asp-Leu-B5-Asp-3COOHF-Aib-Ala-Phe-Lys*3-PyrS2-3Thi-BztA-GlnR*3-Ala-NH2]: the IC50 in assay [1] is 1.5 to 3 µM; in assay [2], less than 50 nM.
The matching figures for `CC(=O)N1CCC[C@]12CC=CCCCC1(CCCC=CCCCOC(=O)N3CC[C@@]4(C3)NC(=O)[C@H](CCCCNC(=O)CC[C@@H](C(=O)N[C@@H](C)C(N)=O)NC(=O)[C@H](Cc3csc5ccccc35)NC(=O)[C@H](Cc3ccsc3)NC4=O)NC(=O)[C@H](Cc3ccccc3)NC(=O)[C@H](C)NC(=O)C(C)(C)NC(=O)[C@H](Cc3cccc(C(=O)O)c3)NC(=O)[C@H](CC(=O)O)NC1=O)NC(=O)[C@H](C(C)C)NC(=O)[C@H](CC(=O)O)NC2=O` (relative stereo) [I-248, Ac-PL3-Asp-Val-B5-Asp-3COOHF-Aib-Ala-Phe-Lys*3-PyrS2-3Thi-BztA-GlnR*3-Ala-NH2]: 1.5 to 3 µM and less than 50 nM.
Regarding `CC(=O)N1CCC[C@]12CC=CCCCC1(CCCC=CCCCOC(=O)N3CC[C@@]4(C3)NC(=O)[C@H](CCCCNC(=O)CC[C@@H](C(=O)N[C@@H](C)C(N)=O)NC(=O)[C@H](Cc3csc5ccccc35)NC(=O)[C@H](Cc3ccsc3)NC4=O)NC(=O)[C@H](Cc3ccccc3)NC(=O)[C@H](C)NC(=O)C(C)(C)NC(=O)[C@H](Cc3cccc(C(=O)O)c3)NC(=O)[C@H](CC(=O)O)NC1=O)NC(=O)[C@H](Cc1ccccc1)NC(=O)[C@H](CC(=O)O)NC2=O` (relative stereo) [I-249, Ac-PL3-Asp-Phe-B5-Asp-3COOHF-Aib-Ala-Phe-Lys*3-PyrS2-3Thi-BztA-GlnR*3-Ala-NH2], the figures for the 50% inhibitory concentration (IC50) in assay [1] and in assay [2] were 3 to 10 µM and less than 50 nM, respectively.
The matching figures for `CC(=O)N1CCC[C@]12CC=CCCCC1(CCCC=CCCCOC(=O)N3CC[C@@]4(C3)NC(=O)[C@H](CCCCNC(=O)CC[C@@H](C(=O)N[C@@H](C)C(N)=O)NC(=O)[C@H](Cc3csc5ccccc35)NC(=O)[C@H](Cc3ccsc3)NC4=O)NC(=O)[C@H](Cc3ccccc3)NC(=O)[C@H](C)NC(=O)C(C)(C)NC(=O)[C@H](Cc3cccc(C(=O)O)c3)NC(=O)[C@H](CC(=O)O)NC1=O)NC(=O)[C@H](CC1CCCCC1)NC(=O)[C@H](CC(=O)O)NC2=O` (relative stereo) [I-250, Ac-PL3-Asp-Cha-B5-Asp-3COOHF-Aib-Ala-Phe-Lys*3-PyrS2-3Thi-BztA-GlnR*3-Ala-NH2]: 3 to 10 µM and less than 50 nM.
Consider `CC(=O)N1CCC[C@]12CC=CCCCC1(CCCC=CCCCOC(=O)N3CC[C@@]4(C3)NC(=O)[C@H](CCCCNC(=O)CC[C@@H](C(=O)N[C@@H](C)C(N)=O)NC(=O)[C@H](Cc3csc5ccccc35)NC(=O)[C@H](Cc3ccsc3)NC4=O)NC(=O)[C@H](Cc3ccccc3)NC(=O)[C@H](C)NC(=O)C(C)(C)NC(=O)[C@H](Cc3cccc(C(=O)O)c3)NC(=O)[C@H](CC(=O)O)NC1=O)NC(=O)[C@H](CC1CCCC1)NC(=O)[C@H](CC(=O)O)NC2=O` (relative stereo) [I-251, Ac-PL3-Asp-CypA-B5-Asp-3COOHF-Aib-Ala-Phe-Lys*3-PyrS2-3Thi-BztA-GlnR*3-Ala-NH2], for which the values for the IC50 in assay [1] and in assay [2] were 1.5 to 3 µM and less than 50 nM, respectively.
As to `CC(=O)N1CCC[C@]12CC=CCCCC1(CCCC=CCCCOC(=O)N3CC[C@@]4(C3)NC(=O)[C@H](CCCCNC(=O)CC[C@@H](C(=O)N[C@@H](C)C(N)=O)NC(=O)[C@H](Cc3csc5ccccc35)NC(=O)[C@H](Cc3ccsc3)NC4=O)NC(=O)[C@H](Cc3ccccc3)NC(=O)[C@H](C)NC(=O)C(C)(C)NC(=O)[C@H](Cc3cccc(C(=O)O)c3)NC(=O)[C@H](CC(=O)O)NC1=O)NC(=O)C1(CCCC1)NC(=O)[C@H](CC(=O)O)NC2=O` (relative stereo) [I-252, Ac-PL3-Asp-CyLeu-B5-Asp-3COOHF-Aib-Ala-Phe-Lys*3-PyrS2-3Thi-BztA-GlnR*3-Ala-NH2], the results for the IC50 in assay [1] and in assay [2] were 3 to 10 µM and less than 50 nM, respectively.
Regarding `CC(=O)N1CCC[C@]12CC=CCCCC1(CCCC=CCCCOC(=O)N3CC[C@@]4(C3)NC(=O)[C@H](CCCCNC(=O)CC[C@@H](C(=O)N[C@@H](C)C(N)=O)NC(=O)[C@H](Cc3csc5ccccc35)NC(=O)[C@H](Cc3ccsc3)NC4=O)NC(=O)[C@H](Cc3ccccc3)NC(=O)[C@H](C)NC(=O)C(C)(C)NC(=O)[C@H](Cc3cccc(C(=O)O)c3)NC(=O)[C@H](CC(=O)O)NC1=O)NC(=O)[C@H](Cc1c(F)c(F)c(F)c(F)c1F)NC(=O)[C@H](CC(=O)O)NC2=O` (relative stereo) [I-254, Ac-PL3-Asp-Pff-B5-Asp-3COOHF-Aib-Ala-Phe-Lys*3-PyrS2-3Thi-BztA-GlnR*3-Ala-NH2], the IC50 is 3 to 10 µM in assay [1] and less than 50 nM in assay [2].
Consider `CCC(CC)[C@@H]1NC(=O)[C@H](CC(=O)O)NC(=O)[C@]2(CC=CCCCC3(CCCC=CCCCOC(=O)N4CC[C@@]5(C4)NC(=O)[C@H](CCCCNC(=O)CC[C@@H](C(=O)N[C@@H](C)C(N)=O)NC(=O)[C@H](Cc4csc6ccccc46)NC(=O)[C@H](Cc4ccsc4)NC5=O)NC(=O)[C@H](Cc4ccccc4)NC(=O)[C@H](C)NC(=O)C(C)(C)NC(=O)[C@H](Cc4cccc(C(=O)O)c4)NC(=O)[C@H](CC(=O)O)NC3=O)NC1=O)CCCN2C(C)=O` (relative stereo) [I-255, Ac-PL3-Asp-DiethA-B5-Asp-3COOHF-Aib-Ala-Phe-Lys*3-PyrS2-3Thi-BztA-GlnR*3-Ala-NH2], for which the results for the IC50 in assay [1] and in assay [2] were 3 to 10 µM and less than 50 nM, respectively.
In the case of `CC(=O)N1CCC[C@]12CC=CCCCC1(CCCC=CCCCOC(=O)N3CC[C@@]4(C3)NC(=O)[C@H](CC3CCN(CC3)C(=O)CC[C@@H](C(=O)N[C@@H](C)C(N)=O)NC(=O)[C@H](Cc3csc5ccccc35)NC(=O)[C@H](Cc3ccsc3)NC4=O)NC(=O)[C@H](Cc3ccccc3)NC(=O)[C@H](C)NC(=O)[C@H](C)NC(=O)[C@H](Cc3cccc(C(=O)O)c3)NC(=O)[C@H](CC(=O)O)NC1=O)NC(=O)[C@H](CC(C)(C)C)NC(=O)[C@H](CC(=O)O)NC2=O` (relative stereo) [I-256, Ac-PL3-Asp-Npg-B5-Asp-3COOHF-Ala-Ala-Phe-4PipA*3-PyrS2-3Thi-BztA-GlnR*3-Ala-NH2], the concentration for half-maximal inhibition (IC50) was 3 to 10 µM in assay [1] and less than 50 nM in assay [2].
On to `CC(=O)N1CCC[C@]12CC=CCCCC1(CCCC=CCCCOC(=O)N3CC[C@@]4(C3)NC(=O)[C@H](CC3CCN(CC3)C(=O)CC[C@@H](C(=O)N[C@@H](C)C(N)=O)NC(=O)[C@H](Cc3csc5ccccc35)NC(=O)[C@H](Cc3ccccc3C(F)(F)F)NC4=O)NC(=O)[C@H](Cc3ccccc3)NC(=O)[C@H](C)NC(=O)[C@H](C)NC(=O)[C@H](Cc3cccc(C(=O)O)c3)NC(=O)[C@H](CC(=O)O)NC1=O)NC(=O)[C@H](CC(C)(C)C)NC(=O)[C@H](CC(=O)O)NC2=O` (relative stereo) [I-257, Ac-PL3-Asp-Npg-B5-Asp-3COOHF-Ala-Ala-Phe-4PipA*3-PyrS2-2F3MeF-BztA-GlnR*3-Ala-NH2], for which the IC50 is 3 to 10 µM in assay [1] and less than 50 nM in assay [2].
As to `CC(=O)N1CCC[C@]12CC=CCCCC1(CCCC=CCCCOC(=O)N3CC[C@@]4(C3)NC(=O)[C@H](CCC(=O)N3CCC(CC3)C[C@@H](C(=O)N[C@@H](C)C(N)=O)NC(=O)[C@H](Cc3csc5ccccc35)NC(=O)[C@H](Cc3ccsc3)NC4=O)NC(=O)[C@H](Cc3ccccc3)NC(=O)[C@H](C)NC(=O)[C@H](C)NC(=O)[C@H](Cc3cccc(C(=O)O)c3)NC(=O)[C@H](CC(=O)O)NC1=O)NC(=O)[C@H](CC(C)(C)C)NC(=O)[C@H](CC(=O)O)NC2=O` (relative stereo) [I-258, Ac-PL3-Asp-Npg-B5-Asp-3COOHF-Ala-Ala-Phe-GlnR*3-PyrS2-3Thi-BztA-4PipA*3-Ala-NH2], the figures for the IC50 in assay [1] and in assay [2] were 3 to 10 µM and less than 50 nM, respectively.

As usually defined, the IC50 is the midpoint of a concentration-inhibition curve. Higher therefore signals weaker potency in that assay.
